The values below come from patent US20120122107A1 (AARHUS UNIVERSITET, published 2012).

The target in experiment [1] is T1, MAp44 in human serum or plasma (native, also in purified MBL/MASP complexes) (human, UniProt P48740 20-363).
T1 construct: Native protein from normal human serum or plasma
T1 sequence: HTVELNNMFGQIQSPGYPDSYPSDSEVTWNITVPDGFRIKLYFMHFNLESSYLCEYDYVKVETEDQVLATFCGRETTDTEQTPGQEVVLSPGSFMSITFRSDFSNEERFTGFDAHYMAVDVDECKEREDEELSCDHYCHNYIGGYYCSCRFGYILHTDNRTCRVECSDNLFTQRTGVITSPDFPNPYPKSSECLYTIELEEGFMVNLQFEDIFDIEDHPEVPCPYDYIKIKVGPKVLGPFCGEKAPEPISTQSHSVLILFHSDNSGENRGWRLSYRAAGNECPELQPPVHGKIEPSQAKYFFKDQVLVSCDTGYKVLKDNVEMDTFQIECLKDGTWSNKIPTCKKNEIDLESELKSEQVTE
The experiment in a line: TRIFMA: L-ficolin captured from human serum, probed in situ with anti-MAp44. From the text: (§1) FIG. 3. Association of MAP44 with MBL and ficolins in serum. A, MBL and ficolins were captured from human serum in microtiter wells coated with anti-MBL, anti-L-ficolin or anti-H-ficolin antibody. Non-specific monoclonal IgG₁ served as control. Bound MBL or ficolins, together with associated proteins, were eluted with SDS-sample buffer, applied to non-reducing SDS-PAGE and analyzed by Western blotting using rabbit anti-MAP44 antibody. Sample ID for each lane is denoted at the top. Purified MBL/MASP complexes (positive control) were also tested. The black lines indicate excision of irrelevant lanes. The Mw in kDa of each band of the marker is given on the right side. The experiment was repeated twice with similar results. B, MBL or ficolins were captured in microtiter wells and specific antibodies were used to detect MAP44. The capture antibodies are given below the x-axis. The signal was detected by time-resolved fluorometry and is given on the y-axis as counts per second. The error bars indicate the standard deviation of duplicate measurements. C, similar to B, but in this case development was with anti-MASP-3 antibody.
(§2) In addition, we similarly captured MBL and ficolins from serum and probed in situ with anti-MAp44 or anti-MASP-3 antibodies. […]

The target in experiment [2] is T1, MAp44 in human serum or plasma (native, …). The experiment in a line: TRIFMA: H-ficolin captured from human serum, probed in situ with anti-MAp44.
Description: as §1, §2

B1: L-ficolin in human serum (other, UniProt Q15485 26-313, looked up)
chain: LQAADTCPEVKMVGLEGSDKLTILRGCPGLPGAPGPKGEAGTNGKRGERGPPGPPGKAGPPGPNGAPGEPQPCLTGPRTCKDLLDRGHFLSGWHTIYLPDCRPLTVLCDMDTDGGGWTVFQRRVDGSVDFYRDWATYKQGFGSRLGEFWLGNDNIHALTAQGTSELRVDLVDFEDNYQFAKYRSFKVADEAEKYNLVLGAFVEGSAGDSLTFHNNQSFSTKDQDNDLNTGNCAVMFQGAWWYKNCHVSNLNGRYLRGTHGSFANGINWKSGKGYNYSYKVSEMKVRPA
notes: mature; Native serum protein captured with mAb GN5; also called ficolin-2
For the molecule B1, the binding result in experiment [1] is given as “binds”.

B2: H-ficolin in human serum (other, UniProt O75636 24-299, looked up)
chain: QEHPSCPGPRELEASKVVLLPSCPGAPGSPGEKGAPGPQGPPGPPGKMGPKGEPGDPVNLLRCQEGPRNCRELLSQGATLSGWYHLCLPEGRALPVFCDMDTEGGGWLVFQRRQDGSVDFFRSWSSYRAGFGNQESEFWLGNENLHQLTLQGNWELRVELEDFNGNRTFAHYATFRLLGEVDHYQLALGKFSEGTAGDSLSLHSGRPFTTYDADHDSSNSNCAVIVHGAWWYASCYRSNLNGRYAVSEAAAHKYGIDWASGRGVGHPYRRVRMMLR
notes: mature; Native serum protein captured with mAb 4H5; also called ficolin-3
For B2, the binding result in experiment [2] is given as “binds”.
